Test [1] is described as follows: cAMP Responsive Elements (CRE) small molecule antagonists, cell-based qHTS assay: qHTS cell viability counter screen (AID 2060913). Also: nearly all actives have a fitted effect of over 40% in size. As to conditions: CRE-bla HEK293T viability, CellTiter-Glo luminescence, 5 h. The source says: U.S. Tox21 Program National Center for Advancing Translational Sciences [NCATS] Division of Preclinical Innovation [DPI] U.S. Environmental Protection Agency [EPA] National Institutes of Environmental Health Sciences [NIEHS] National Toxicology Program [NTP] U.S. Food and Drug Administration [FDA] Tox21 Assay Overview: CREB (cyclic-AMP Responsive Element Binding Protein) is a cellular transcription factor. It binds to certain DNA sequences called cAMP Responsive Elements (CRE) and regulates the transcription of the genes. […] This cell line can be used to find agonists/antagonists of the cyclic AMP signaling pathway. The activation of the report gene under culture conditions can be detected by fluorescence intensity. […]
(§1) Tox21 Assay Protocol Summary: CRE-bla Hek 293T cells were suspended in assay medium (DMEM containing 10% dialyzed FBS, 0.1 mM NEAA, 1 mM sodium pyruvate and 25 mM HEPES) and dispensed at 2,000 cells/4 uL /well into 1536-well black wall/clear bottom plates using a Multidrop Combi (ThermoFisher Scientific, Waltham, MA) dispenser. […] The plates were incubated at room temperature for 2 h, then fluorescence intensities were measured using an Envision plate reader (PerkinElmer, Shelton, CT) at Excitation 405nm, Emission 460nm and 530nm. The % activity was determined from the ratio of 460nm/530nm. […]
In general terms: Quantitative high-throughput screening tests each substance at several concentrations.

Test [2] can be described thus: cAMP Responsive Elements (CRE) small molecule agonists, cell-based qHTS assay: qHTS cell viability counter screen (AID 2060914).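 Also: viability read after 3 h of compound exposure; nearly all actives have a fitted effect of over 50% in size.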 The following applies: CRE-bla HEK293T viability, CellTiter-Glo luminescence, 5 h.
Source text: National Center for Advancing Translational Sciences [NCATS]
Division of Preclinical Innovation [DPI]
U.S. Environmental Protection Agency [EPA]
National Institutes of Environmental Health Sciences [NIEHS]
National Toxicology Program [NTP]
U.S. Food and Drug Administration [FDA]
CREB (cyclic-AMP Responsive Element Binding Protein) is a cellular transcription factor. It binds to certain DNA sequences called cAMP Responsive Elements (CRE) and regulates the transcription of the genes. […] This cell line can be used to find agonists/antagonists of the cyclic AMP signaling pathway. The activation of the report gene under culture conditions can be detected by fluorescence intensity. […]
as §1, with “CRE-bla” for “Tox21 Assay Protocol Summary: CRE-bla”, “cells/5” for “cells/4”, “460nm/530nm. For cell viability readout that measures cytotoxicity, 4 uL /well of CellTiter-Glo reagent was added into the assay plates using Bioraptr FRD.” for “460nm/530nm.”

These results are taken from PubChem BioAssay (Tox21).

Structures are written as SMILES. The entries are a selection whose mix differs from that of the whole data set. Results filed as inconclusive are left out. Calls of active or inactive are those of the source. Calls follow the shape of the dose curve; as a rule, active = well fitted cell-killing curve with a large enough effect in the repeat runs; inconclusive = weak or mixed curves, or effect the other way; inactive = flat fitted curve, though single readings scatter.
Potency is read from the fitted curve at half-maximal effect.

Regarding `N#CSc1ccc([N+](=O)[O-])cc1[N+](=O)[O-]`, in test [1], the Potency is active: 68.6 µM.
Take `O=[As]c1ccccc1` (configuration not stated): the Potency in test [2] is active: 5.45 µM.
